{
  "sequences": {"note": "By UniProt entry, the sequences of proteins in these tests, tags left out.", "UniProt Q92731, whole entry": "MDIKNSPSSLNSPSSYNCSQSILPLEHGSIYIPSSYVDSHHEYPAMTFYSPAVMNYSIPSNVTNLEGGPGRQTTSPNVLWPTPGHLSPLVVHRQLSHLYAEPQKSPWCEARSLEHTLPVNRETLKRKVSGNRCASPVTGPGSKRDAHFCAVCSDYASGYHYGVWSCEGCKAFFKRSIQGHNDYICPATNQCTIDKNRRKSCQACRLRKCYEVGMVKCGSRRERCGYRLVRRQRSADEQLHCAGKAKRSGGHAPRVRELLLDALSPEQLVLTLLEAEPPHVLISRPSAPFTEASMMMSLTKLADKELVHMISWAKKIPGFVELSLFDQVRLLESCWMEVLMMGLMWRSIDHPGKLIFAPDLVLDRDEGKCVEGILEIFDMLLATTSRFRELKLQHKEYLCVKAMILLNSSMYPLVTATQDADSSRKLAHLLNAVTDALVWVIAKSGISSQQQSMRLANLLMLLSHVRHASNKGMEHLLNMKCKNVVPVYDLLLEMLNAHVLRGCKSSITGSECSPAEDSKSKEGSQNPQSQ"},
  "source": "patent US7537904B1",
  "about": "(dated 2009)",
  "molecular_target": "estrogen receptor β (Homo sapiens, UniProt Q92731)",
  "assay": "Luciferase reporter assay using cell of the present invention (estrogen receptor β, HeLa cell)",
  "settings": "17β estradiol concentration increased 10-fold per district (0.1 pM to 100 nM); 36 hours; FIG. 3",
  "data": [
    {"compound": "C[C@]12CC[C@@H]3c4ccc(O)cc4CC[C@H]3[C@@H]1CC[C@@H]2O", "note": "[17β estradiol, 17β-estradiol]", "values": [
      {"measurement": "luciferase activity, estrogen receptor β cell", "result": "Increase in luciferase activity along with the increase in the concentration"}
    ]}
  ]
}
